Laboratory results from PubChem BioAssay AID504634 (The Scripps Research Institute Molecular Screening Center, 2011).
This is a selection; strong and weak results do not stand in their true shares. The source made the active and inactive calls. No stated cut-off is given here; in the data, active means inhibition mostly above about 23% (no sharp cut-off); inactive means mostly below about 18%.

By UniProt entry, the sequences of proteins in these tests, tags left out.
UniProt P47898, whole entry, looked up: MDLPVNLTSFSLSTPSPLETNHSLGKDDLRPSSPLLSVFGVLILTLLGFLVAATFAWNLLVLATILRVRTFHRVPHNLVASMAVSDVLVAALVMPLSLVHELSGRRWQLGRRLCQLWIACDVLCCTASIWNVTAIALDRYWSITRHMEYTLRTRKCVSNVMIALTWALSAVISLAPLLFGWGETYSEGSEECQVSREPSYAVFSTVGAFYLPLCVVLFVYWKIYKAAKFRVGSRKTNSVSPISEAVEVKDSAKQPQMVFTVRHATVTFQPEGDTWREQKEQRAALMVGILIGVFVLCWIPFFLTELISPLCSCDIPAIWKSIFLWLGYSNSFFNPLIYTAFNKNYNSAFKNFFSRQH

biological target: 5-hydroxytryptamine receptor 5A (Homo sapiens) (UniProt P47898); test: HTR5A inverse agonists in luminescence cell assay, primary screen, counter-screen for OPRM1-OPRD1 heterodimer inverse agonist project, full-deck HTS (AID 504634); details: HTR5A cell line, inverse agonism, at 9.3 µM, stronger effect = higher value;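 further: 0% = cells with DMSO and 100% = no-cell wells with DMSO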

Structure (SMILES) | inhibition
CCc1ccccc1NC(=O)CSc1nc2ccccc2n1CC(=O)N1CCCC1 | inactive: 0.88%
Cc1ccc(C(=O)N(C)c2ccc(OCC(=O)N3c4ccc(C)cc4C4CN(C)CCC43)cc2)cc1 (stereo not given) | inactive: 7.6%
C[C@H](O)[C@@H]1C(=O)N2CCc3ccc(N4CCN(C)CC4)cc3[C@@H]2C[C@@H]1N(C)C(=O)Nc1cc(Cl)cc(Cl)c1 | inactive: 11%
Cc1ccc(OCC(=O)OC2CN3CCC2CC3)cc1 (stereo not given) | inactive: 4.36%
CCC(=O)N1CCn2c1nc1ccccc12 | inactive: -14.8%
NC(=O)Cn1c(S(=O)(=O)Cc2ccccc2)nc2ccccc21 | inactive: 12.2%
CC(c1ccccc1)N1CCn2c(nc3cc(NC(=O)c4cccs4)ccc32)C1 (stereo not given) | inactive: 25.3%
O=C1CC(N2CCC(n3c(=O)[nH]c4ccccc43)CC2)C(=O)N1c1ccc(F)cc1 (stereo not given) | inactive: -4.46%
CC(C)N(C(=O)Cn1c(SCC(=O)NCc2ccc3c(c2)OCO3)nc2ccccc21)C(C)C | inactive: 5.31%
N=c1n(CCN2CCOCC2)c2ccccc2n1Cc1ccccc1Br | inactive: -5.16%
CCc1ccccc1NC(=O)CSc1nc2ccccc2n1CC(=O)N(C)C | inactive: -11.4%
O=S(=O)(Nc1ccc2c(c1)nc1n2CCN(Cc2ccccc2)C1)c1ccc(Cl)cc1 | inactive: -23.1%
O=C(Cn1cnc2ccccc21)N/N=C/c1cccs1 | inactive: -15.3%
CN(C)CCn1cnc2c1c(=O)[nH]c(=O)n2Cc1ccccc1 | inactive: -15.9%
Cc1ccc2c(c1)C1CN(C)CCC1N2C(=O)c1ccc(Br)o1 (stereo not given) | inactive: 3.02%
Cc1ccc2c(c1)C1CN(C)CCC1N2C(=O)/C(C#N)=C/c1ccc2c(c1)OCO2 (stereo not given) | inactive: -47.8%
COC(=O)CSc1nc2ccccc2n1CC(=O)N(C(C)C)C(C)C | inactive: 8.19%
O=P1(Nc2ncccn2)COc2ccccc2OC1 | inactive: 3.01%
Cn1c(=O)[nH]c(=O)c2c1nc(N1CCOCC1)n2CCN1CCOCC1 | inactive: 0.49%
CCN(CC)C(=O)N1CCn2c(nc3ccccc32)C1 | inactive: -26.6%
Fc1ccc2c(c1)nnn2C1CCN(Cc2nnnn2C2CCCCC2)CC1 | inactive: 1.02%
COC(=O)[C@@H](Cc1ccccc1)NC(=O)Cn1cnc2c(SC)nc(N)nc21 | inactive: -4.98%
COC(CNC(=O)CC1C(=O)N(Cc2ccccc2)C(C)c2nc3ccccc3n21)OC (stereo not given) | inactive: -0.14%
NNC(=O)Cn1c(COc2ccc(Cl)cc2)nc2ccccc21 | inactive: 6.28%
NC(=O)CC(NC(=O)Cc1cccc2ccccc12)c1ccc(NC2CCN(Cc3ccccc3)CC2)c([N+](=O)[O-])c1 (stereo not given) | inactive: 10%
